Values quoted from earlier work in patent US20100130425A1, “USE OF TOLL-LIKE RECEPTOR LIGANDS IN TREATING EXCITOTOXIC INJURY, ISCHEMIA AND/OR HYPOXIA” (Oregon Health & Science University, priority 2005, published 2010).
Values joined by “and” are separate entries in the source; they are usually repeats but may differ in a detail not shown here. Identical values can stand only once.

Sequences of proteins named here, by UniProt entry; tags and fusion partners are left off. Residues count along the entry.
UniProt Q9NYK1, 27-1049, species assumed: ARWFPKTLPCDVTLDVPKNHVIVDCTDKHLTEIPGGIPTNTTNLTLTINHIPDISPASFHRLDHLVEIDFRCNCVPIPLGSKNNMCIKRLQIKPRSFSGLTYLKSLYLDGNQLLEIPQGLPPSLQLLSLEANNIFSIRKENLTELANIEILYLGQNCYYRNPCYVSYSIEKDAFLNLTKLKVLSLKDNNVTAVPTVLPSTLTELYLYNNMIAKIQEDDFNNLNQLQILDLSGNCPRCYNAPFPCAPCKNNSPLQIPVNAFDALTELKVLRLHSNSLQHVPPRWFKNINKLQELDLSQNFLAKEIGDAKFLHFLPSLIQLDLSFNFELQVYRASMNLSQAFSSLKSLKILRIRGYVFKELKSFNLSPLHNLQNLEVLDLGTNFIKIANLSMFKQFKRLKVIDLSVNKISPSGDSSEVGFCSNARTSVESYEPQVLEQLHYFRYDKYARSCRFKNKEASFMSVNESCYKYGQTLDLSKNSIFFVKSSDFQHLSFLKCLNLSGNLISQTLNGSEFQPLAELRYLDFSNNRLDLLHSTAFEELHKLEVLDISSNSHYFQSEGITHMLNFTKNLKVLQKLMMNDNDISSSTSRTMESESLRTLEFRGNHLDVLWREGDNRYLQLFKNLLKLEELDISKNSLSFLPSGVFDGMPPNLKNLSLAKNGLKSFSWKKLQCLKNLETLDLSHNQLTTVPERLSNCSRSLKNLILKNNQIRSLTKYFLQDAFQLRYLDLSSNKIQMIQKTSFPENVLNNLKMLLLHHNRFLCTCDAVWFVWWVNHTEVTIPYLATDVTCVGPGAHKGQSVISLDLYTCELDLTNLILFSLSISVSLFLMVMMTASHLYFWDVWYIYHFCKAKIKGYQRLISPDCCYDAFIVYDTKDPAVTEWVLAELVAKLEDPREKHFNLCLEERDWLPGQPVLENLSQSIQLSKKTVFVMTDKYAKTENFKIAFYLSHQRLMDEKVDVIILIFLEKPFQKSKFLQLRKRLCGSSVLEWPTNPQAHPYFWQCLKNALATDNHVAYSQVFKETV
UniProt Q9NR97, 27-1041: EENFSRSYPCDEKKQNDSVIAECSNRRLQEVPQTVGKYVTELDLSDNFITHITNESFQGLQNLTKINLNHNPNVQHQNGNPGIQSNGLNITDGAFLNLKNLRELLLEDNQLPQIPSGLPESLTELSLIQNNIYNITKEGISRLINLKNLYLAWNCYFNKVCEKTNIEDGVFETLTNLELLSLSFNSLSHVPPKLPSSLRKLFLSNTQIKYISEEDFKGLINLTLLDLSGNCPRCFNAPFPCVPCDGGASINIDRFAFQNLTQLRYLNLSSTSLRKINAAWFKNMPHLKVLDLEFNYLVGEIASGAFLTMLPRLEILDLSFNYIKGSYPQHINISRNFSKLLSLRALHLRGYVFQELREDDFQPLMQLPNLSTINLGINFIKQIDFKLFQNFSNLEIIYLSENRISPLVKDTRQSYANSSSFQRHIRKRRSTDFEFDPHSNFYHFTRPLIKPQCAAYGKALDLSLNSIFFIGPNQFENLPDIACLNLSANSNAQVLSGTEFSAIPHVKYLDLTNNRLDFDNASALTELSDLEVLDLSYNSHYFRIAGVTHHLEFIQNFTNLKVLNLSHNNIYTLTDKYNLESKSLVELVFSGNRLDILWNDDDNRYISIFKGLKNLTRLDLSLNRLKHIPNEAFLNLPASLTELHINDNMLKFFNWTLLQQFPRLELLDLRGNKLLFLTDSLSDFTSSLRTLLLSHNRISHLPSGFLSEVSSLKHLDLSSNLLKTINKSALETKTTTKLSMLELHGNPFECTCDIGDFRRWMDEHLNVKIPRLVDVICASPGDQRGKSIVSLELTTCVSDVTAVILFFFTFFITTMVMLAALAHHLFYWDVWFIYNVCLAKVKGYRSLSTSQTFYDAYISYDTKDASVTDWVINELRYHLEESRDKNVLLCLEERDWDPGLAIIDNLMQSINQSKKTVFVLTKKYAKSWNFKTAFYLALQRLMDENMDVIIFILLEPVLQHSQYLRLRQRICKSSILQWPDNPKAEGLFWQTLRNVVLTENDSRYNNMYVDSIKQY

Columns and labels:
TLR7 = target: T1, TLR7 (Homo sapiens, UniProt Q9NYK1); settings: TLR7-transfected HEK293 cells; cited from earlier work
T1 construct: expressed in transfected cells; host or cells: HEK293

TLR8 = target: T2, TLR8 (Homo sapiens, UniProt Q9NR97); settings: TLR8-transfected HEK293 cells; cited from earlier work
T2 construct: expressed in transfected cells; host or cells: HEK293

Q: With `CCOCc1nc2c(N)nc3ccccc3c2[nH]1` [CL097] as the compound, how does the “concentration inducing activation of NF-κB” value (TLR7) read?
A: 0.4 μM and 0.1 μg/ml

Q: What about the “concentration inducing activation of NF-κB” value (TLR8) of the same compound?
A: 4 μM and 1 μg/ml
